## Antibody variant affinities, Ab-14 heavy chain, assay B

Source: Li et al. 2023 (doi:10.1038/s41467-023-39022-2), MIT Lincoln Laboratory and A-Alpha Bio; data file from the FLAb repository.

All variants were tested on one target, the spike HR2 peptide PDVDLGDISGINAS (SARS-CoV-2).

The variants keep the light chain, the linker and the frameworks of Ab-14 (scFv order VH, three GGGGS repeats, VL).
VH: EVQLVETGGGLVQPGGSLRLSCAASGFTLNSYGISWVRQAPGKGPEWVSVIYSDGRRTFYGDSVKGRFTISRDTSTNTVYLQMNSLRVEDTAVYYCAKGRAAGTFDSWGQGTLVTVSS
VL: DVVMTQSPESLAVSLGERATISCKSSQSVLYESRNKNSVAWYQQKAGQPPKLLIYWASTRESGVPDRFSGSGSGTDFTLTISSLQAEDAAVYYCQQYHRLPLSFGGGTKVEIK

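These sequences belong to a second round, designed from the earlier measurements on random variants of the parent. Group labels follow the data file (Rand: our label for a block that the file lists under HC and that is probably the random mutants of the ten best first-round binders; En: ensemble of fine-tuned language models; HC: hill climbing; Gen: genetic algorithm; Gibbs: Gibbs sampling; a sequence that several methods proposed may carry one label only). AlphaSeq pools MATa yeast showing the antibodies with MATalpha yeast showing the peptide. Binding brings cells together so that they mate, and sequencing counts the barcode pairs among the diploids. Each replicate has its own calibration line, from reference interactions of the BCL2 family. There are six technical replicates.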

The parent's heavy chain CDRs are GFTLNSYGIS, VIYSDGRRTFYGDSVK, GRAAGTFDS; each variant's own CDRs replace them letter for letter.
This list holds designs with more than six substitutions.
Affinities are written as log10 Kd with Kd in nM; a lower number is a better binder.
Where no diploid with the target was found in that replicate, the entry reads "ND": below detection, most likely a poor binder, though not proof of it.

- GFDLNEYGIS | VIYADGKRSYATDSVK | NGYNIGASV [En_Gibbs] = ND, ND, ND, ND, ND, ND (controls 0 of 18)
- GFDLEEYGIS | VIYADGMRTAYADSVK | GNVAGTFDV [En_Gen] = -0.84, -0.86, -0.94, -1.21, -0.73, -0.40 (controls 1 of 18)
- GQGLEEYGIS | VIYADGQRNAAADEVK | GENAGTFDI [En_Gibbs] = ND, ND, ND, ND, ND, ND (controls 0 of 18)
- GFNLDEYGIS | VIYADGMRTAYSDSVK | GEVAGTFDL [En_Gen] = -0.80, -0.88, -0.98, -1.41, -1.07, -0.23 (controls 1 of 18)
- GFDLNEYGIS | VIYADGKRTFYADSVK | GNVAGTFDS [En_HC] = -1.31, -0.21, -1.23, -1.17, -0.71, 0.64 (controls 0 of 18)
- GFDLNEYGIS | VIYADGVRTAYADTVK | GENAGTFDV [En_Gen] = 0.09, -0.08, -0.53, -0.10, -0.34, 0.41 (controls 0 of 18)
- GFDLNEYGIS | VIYADGRRTAYVDSVK | GNNAGTFDI [En_Gen] = ND, ND, ND, ND, 1.32, ND (controls 1 of 18)
- GFNLNEYGIS | VIYADGRRSFYSDSVK | GEQAGTFDV [En_HC] = -0.45, -0.64, -0.60, -0.42, -0.63, -0.16 (controls 0 of 18)
- GFSLDEYGIS | VIYADGLRTQYHNKVK | GLQGFIFDQ [En_Gibbs] = ND, ND, ND, ND, ND, ND (controls 0 of 18)
- GFDLNEYGIS | VIYADGMRTFYSDSVK | GNTAGTFDV [En_Gen] = -0.20, -0.34, -0.33, -0.04, -0.30, 0.13 (controls 2 of 18)
- GFDINEYGIS | VIYADGRRTAYADSVK | GEAAGTFDV [En_HC] = -0.48, -0.54, -0.71, -0.58, -0.61, -0.28 (controls 0 of 18)
- GFTRNEINIS | VIYSDGRRTFYGDSAK | GRAAVTFDQ [Rand] = ND, ND, ND, ND, ND, ND (controls 1 of 18)
- GFDLNEYGIS | VIYADGVRTYYADSVK | GENAGTFDV [En_Gen] = -0.21, -0.44, -0.60, -0.09, -0.39, -0.35 (controls 0 of 18)
- GFKLDEYGIS | VIYADGCRTAYADSFK | GKTTFSKFV [En_Gibbs] = ND, ND, ND, ND, ND, ND (controls 0 of 18)
- AFNLEDYGIS | VIYADGHRASYVESVK | GGLAGTFVI [En_Gibbs] = ND, ND, ND, ND, ND, ND (controls 0 of 18)
- GFDLNEYGIS | VIYADGRRTAYIDSVK | GNAAGTFDL [En_HC] = -0.31, -0.44, -0.63, -0.68, -0.54, -0.24 (controls 1 of 18)
- GFDLNEYGIS | VIYADGSRQMYADNVK | DVMGGMKLV [En_Gibbs] = ND, ND, ND, ND, ND, ND (controls 0 of 18)
- GFDLNEYGIS | VIYADGKRTAYSDSVK | GTNAGTFDQ [En_Gen] = 0.04, -0.01, 0.05, -0.02, -0.42, 0.17 (controls 0 of 18)
- GFDLGEFGIS | VIYADGMRTAYSDAVK | GTFSGTLDV [En_Gibbs] = 0.63, 0.34, 0.78, ND, 0.73, 1.65 (controls 0 of 18)
- GFNLNEYGIS | VIYADGRRTFYTDDVK | GEVAGTFDL [En_HC] = -0.93, -0.74, -0.92, -0.86, -0.78, -0.90 (controls 0 of 18)
- GFDLNEYGIS | VIYADGVRTAYADDVK | GTNAGTFDM [En_Gen] = 0.43, 0.32, -0.16, -0.02, -0.17, -0.35 (controls 0 of 18)
- GFDLNEYGIS | VIYADGKRTAYVDSVK | GENAGTFDT [En_Gen] = ND, 0.44, ND, ND, 1.71, ND (controls 0 of 18)
- GFNLDEYGIS | VIYADGMRTAYGNNVK | GAVFGDLIS [En_Gibbs] = ND, ND, ND, ND, ND, ND (controls 0 of 18)
- GFDLNEYGIS | VIYADGKRTAYADSVK | GGEAGTFDV [En_Gen] = 0.14, -0.18, -0.38, -0.52, -0.58, -0.05 (controls 1 of 18)
- GADLNEYGIS | VIYADGRSVYYANSFK | GHNAGTFDS [En_Gibbs] = 1.74, 1.98, ND, 2.70, 1.70, 2.78 (controls 2 of 18)
- GFDLNEYGIS | VIYADGVRTYYADSVK | GQNAGTFDV [En_Gen] = -0.27, -0.46, -0.95, -0.62, -0.79, -0.54 (controls 0 of 18)
- GFNLNEYGIS | VIYADGRRTAYADSVK | GGAAGTFDV [En_HC] = 2.04, 0.75, 0.13, 0.16, 0.39, 0.87 (controls 0 of 18)
- GFDLNEYGIS | VIYADGKRTAYADNVK | GEVAGTFDI [En_Gen] = -0.10, -0.36, -0.54, -0.30, -0.39, -0.51 (controls 1 of 18)
- GFDLNEYGIS | VIYADGRRSFYADSVK | GQLAGTFDV [En_HC] = -0.83, -0.85, -0.89, -1.05, -0.63, -0.69 (controls 0 of 18)
- GFDLAEYGIS | VIYADGQRKSYADSFK | GRWSGQVIM [En_Gibbs] = ND, ND, ND, ND, ND, ND (controls 0 of 18)
- GFDLEEYGIS | VIYADGKRTAYSDSVK | GENAGTFDV [En_Gen] = -0.16, -0.18, -0.33, -0.66, -0.30, -0.11 (controls 1 of 18)
- GFSLDEYGIS | VIYADGLRSKYADKVK | GQLQQYGDT [En_Gibbs] = ND, ND, ND, ND, ND, 2.07 (controls 0 of 18)
- GFDLNEYGIS | VIYADGRRTAYSDSVK | GNVAGTFDM [En_Gen] = 0.38, 0.12, -0.31, -0.10, -0.13, 0.31 (controls 0 of 18)
- GFNLEEYGIS | VIYADGKRSVYADSVK | GHISGWFAI [En_Gibbs] = ND, ND, ND, ND, ND, ND (controls 0 of 18)
- GFDLDEYGIS | VIYADGRRTFYADSVK | GEAAGTFDF [En_HC] = -0.98, -1.07, -1.43, -0.85, -0.38, -0.91 (controls 0 of 18)
- GFSLDEYGIS | VIYADGVRRSYNDNVK | GFNGEVSIV [En_Gibbs] = ND, ND, ND, ND, ND, ND (controls 0 of 18)
- GFDLNEYGIS | VIYADGKRTFYVDSVK | GVNAGTFDV [En_HC] = 0.59, 0.82, 0.59, 0.69, 0.57, 0.57 (controls 0 of 18)
- GFDLNEYGIS | VIYADGRRTQYIDSVK | GEVAGTFDV [En_HC] = -0.24, -0.43, -0.49, -0.53, -0.31, -0.14 (controls 0 of 18)
- GFQLDEYGIS | VIYADGRRTFYADSVK | GENAGTFLM [En_HC] = ND, 1.67, 1.81, ND, 2.40, 1.24 (controls 1 of 18)
- GKDIDEYGIS | VIYADGRRTFVIDSVK | GINSDFVLA [En_Gibbs] = ND, ND, ND, ND, ND, ND (controls 0 of 18)
- GFDIQDYGIS | VIYADGSRTAYTNSVK | GEQGASYDL [En_Gibbs] = ND, ND, ND, ND, ND, ND (controls 0 of 18)
- GFDLDEYGIS | VIYADGVRTAYSDSVK | GNTAGTFDL [En_Gen] = -0.42, 0.14, -0.54, -0.83, -0.53, 0.12 (controls 0 of 18)
- GFNLDEYGVS | VIYADGVRTAYVSKVK | GQEGWVLLM [En_Gibbs] = ND, ND, ND, ND, ND, ND (controls 0 of 18)

Top 4 of the variants detected in all replicates, tightest first:

CDR-H1,CDR-H2,CDR-H3,group,"log10 Kd, replicates",control signals
GFDLDEYGIS,VIYADGRRTFYADSVK,GEAAGTFDF,En_HC,"-0.98, -1.07, -1.43, -0.85, -0.38, -0.91",0 of 18
GFNLDEYGIS,VIYADGMRTAYSDSVK,GEVAGTFDL,En_Gen,"-0.80, -0.88, -0.98, -1.41, -1.07, -0.23",1 of 18
GFNLNEYGIS,VIYADGRRTFYTDDVK,GEVAGTFDL,En_HC,"-0.93, -0.74, -0.92, -0.86, -0.78, -0.90",0 of 18
GFDLEEYGIS,VIYADGMRTAYADSVK,GNVAGTFDV,En_Gen,"-0.84, -0.86, -0.94, -1.21, -0.73, -0.40",1 of 18

The authors' rule: three or more of the six replicates give a measured affinity, fewer mean a poor binder.
The range of this assay differs from that of the first round, and the authors advise against merging the two.
Background: pairings of all heavy chain designs with three empty control strains gave a value in 1% of cases (median 2.08, 5th percentile 0.84). Values in that range, when seen in few replicates, are hard to tell from nonspecific mating. Also given: how often the same scFv was detected with the empty control strains.